The text below walks through data of PubChem BioAssay AID624378 (The Scripps Research Institute Molecular Screening Center, 2012).

Sequences of proteins named here, by UniProt entry; tags and fusion partners are left off.
UniProt Q9Y5X4, whole entry: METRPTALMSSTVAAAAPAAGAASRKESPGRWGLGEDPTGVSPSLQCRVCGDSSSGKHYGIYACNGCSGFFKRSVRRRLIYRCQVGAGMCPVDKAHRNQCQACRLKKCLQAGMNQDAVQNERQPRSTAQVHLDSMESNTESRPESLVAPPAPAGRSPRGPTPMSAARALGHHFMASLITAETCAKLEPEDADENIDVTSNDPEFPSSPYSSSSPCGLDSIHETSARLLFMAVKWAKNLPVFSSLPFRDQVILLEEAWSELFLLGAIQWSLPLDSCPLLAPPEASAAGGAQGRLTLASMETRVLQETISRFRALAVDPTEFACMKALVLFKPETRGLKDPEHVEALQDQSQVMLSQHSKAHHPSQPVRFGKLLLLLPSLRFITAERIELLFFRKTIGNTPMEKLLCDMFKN

This is a selection; strong and weak results do not stand in their true shares. Calls of active or inactive are those of the source.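 Rule for the calls: active = average inhibition above a cutoff equal to the mean inhibition of all tested compounds plus one SD (cut at about 70% in these data); inactive = the rest.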

The target in this experiment is Photoreceptor-specific nuclear receptor (Homo sapiens) (UniProt Q9Y5X4). Description: retest of NR2E3-NCOR disrupting agonists – cell-based, luminescence, CHO-S two-hybrid, confirmation (AID 624378).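 Note: 0% = DMSO in NR2E3 cells and 100% = DMSO in cells lacking NR2E3.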 The settings on record: CHO-S mammalian two-hybrid NR2E3-NCOR, luciferase luminescence; at 3.98 µM; stronger effect = higher value.
Consider `CCCCn1nnnc1C(c1ccccc1OC(F)(F)F)N1CCC(n2c(=O)[nH]c3ccccc32)CC1` (stereo unspecified), for which the inhibition was inactive: 52.5%.

Broadly, the inhibition is the share of the control response that was lost under treatment.
